The target of this assay is T1, DQA1*0501/DQB1*0201 (Homo sapiens, UniProt P01909+P01920, C70S).
T1 construct: HAT-DQA1*05011-181(C47S)LZFos; DQB1*0201LZ1-190JunBSP; made in house
As to the kind of experiment: Direct LOCI peptide-MHC-II binding assay, DQA1*0501/DQB1*0201.

Amino acid sequences for entries named in this document (tags omitted). Chains listed by the source or under a name are the forms on record and can include a tag or linker.
UniProt P01920, with tags, fused parts or gaps with the stated changes: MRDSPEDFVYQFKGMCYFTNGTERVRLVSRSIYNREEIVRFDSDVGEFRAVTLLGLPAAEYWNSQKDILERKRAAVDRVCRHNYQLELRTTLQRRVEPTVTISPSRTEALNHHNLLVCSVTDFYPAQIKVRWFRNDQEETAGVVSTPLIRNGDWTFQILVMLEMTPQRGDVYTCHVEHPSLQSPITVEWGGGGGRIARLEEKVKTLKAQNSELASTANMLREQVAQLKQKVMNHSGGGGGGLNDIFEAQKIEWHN

SMILES strings stand for the structures. Some results are limits rather than exact numbers.

As to `CSCC[C@H](NC(=O)[C@@H](N)Cc1c[nH]c2ccccc12)C(=O)N[C@@H](C)C(=O)N[C@@H](CCCNC(=N)N)C(=O)N[C@@H](CCCNC(=N)N)C(=O)N[C@@H](Cc1c[nH]cn1)C(=O)N[C@@H](C)C(=O)N[C@@H](CCC(=O)O)C(=O)N[C@@H](CCCNC(=N)N)C(=O)O` [Brucella], the equilibrium dissociation constant (Kd) is more than 5 µM.
Take `CSCC[C@H](NC(=O)[C@@H](N)Cc1ccccc1)C(=O)N[C@@H](CO)C(=O)N[C@@H](CCCNC(=N)N)C(=O)N[C@@H](CCCCN)C(=O)N[C@@H](CC(C)C)C(=O)N[C@@H](Cc1c[nH]cn1)C(=O)N[C@@H](CCCNC(=N)N)C(=O)N[C@@H](Cc1ccc(O)cc1)C(=O)O` [Hantaan]: the Kd was more than 5 µM.

The record behind these values is publication PMC2690590, “Functional recombinant MHC class II molecules and high-throughput peptide-binding assays” (Immunome Research, 2009).
